Values of other authors in paper PMC4508061, “Selectivity Profiling and Biological Activity of Novel β-Carbolines as Potent and Selective DYRK1 Kinase Inhibitors” (PLoS ONE, 2015).

The chains behind the UniProt entries cited, without tags or fusion partners. Where a name states a change or a piece, a line headed by the entry shows the natural chain unless it says otherwise.
UniProt P49761: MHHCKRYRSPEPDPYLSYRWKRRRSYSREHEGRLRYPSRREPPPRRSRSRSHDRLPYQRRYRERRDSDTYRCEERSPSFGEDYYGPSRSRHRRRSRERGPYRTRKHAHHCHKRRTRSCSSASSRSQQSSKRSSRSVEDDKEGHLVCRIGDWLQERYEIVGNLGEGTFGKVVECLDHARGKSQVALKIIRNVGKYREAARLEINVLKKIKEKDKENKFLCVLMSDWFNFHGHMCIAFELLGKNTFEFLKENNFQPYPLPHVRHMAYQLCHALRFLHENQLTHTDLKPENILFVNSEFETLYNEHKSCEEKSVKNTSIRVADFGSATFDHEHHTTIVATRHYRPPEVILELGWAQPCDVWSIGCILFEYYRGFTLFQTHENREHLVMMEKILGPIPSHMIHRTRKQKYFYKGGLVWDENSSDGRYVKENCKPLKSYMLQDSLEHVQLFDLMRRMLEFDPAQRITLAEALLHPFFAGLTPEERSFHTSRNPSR
UniProt Q9Y463, whole entry: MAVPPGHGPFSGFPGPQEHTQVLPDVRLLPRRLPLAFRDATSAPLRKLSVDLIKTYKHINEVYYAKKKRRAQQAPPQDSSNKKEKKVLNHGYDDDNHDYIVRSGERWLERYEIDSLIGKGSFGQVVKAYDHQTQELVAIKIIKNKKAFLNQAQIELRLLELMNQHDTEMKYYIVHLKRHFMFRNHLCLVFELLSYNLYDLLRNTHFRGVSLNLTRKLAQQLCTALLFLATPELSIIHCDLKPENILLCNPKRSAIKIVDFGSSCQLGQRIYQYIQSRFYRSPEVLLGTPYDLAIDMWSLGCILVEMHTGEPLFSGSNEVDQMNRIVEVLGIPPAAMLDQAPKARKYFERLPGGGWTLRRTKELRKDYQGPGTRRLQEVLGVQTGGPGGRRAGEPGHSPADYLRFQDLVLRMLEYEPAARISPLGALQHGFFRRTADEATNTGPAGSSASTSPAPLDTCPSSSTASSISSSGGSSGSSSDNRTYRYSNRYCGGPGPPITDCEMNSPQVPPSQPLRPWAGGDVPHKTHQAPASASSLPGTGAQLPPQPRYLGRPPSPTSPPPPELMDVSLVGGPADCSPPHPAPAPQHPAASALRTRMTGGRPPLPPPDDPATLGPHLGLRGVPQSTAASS
UniProt P49760, whole entry: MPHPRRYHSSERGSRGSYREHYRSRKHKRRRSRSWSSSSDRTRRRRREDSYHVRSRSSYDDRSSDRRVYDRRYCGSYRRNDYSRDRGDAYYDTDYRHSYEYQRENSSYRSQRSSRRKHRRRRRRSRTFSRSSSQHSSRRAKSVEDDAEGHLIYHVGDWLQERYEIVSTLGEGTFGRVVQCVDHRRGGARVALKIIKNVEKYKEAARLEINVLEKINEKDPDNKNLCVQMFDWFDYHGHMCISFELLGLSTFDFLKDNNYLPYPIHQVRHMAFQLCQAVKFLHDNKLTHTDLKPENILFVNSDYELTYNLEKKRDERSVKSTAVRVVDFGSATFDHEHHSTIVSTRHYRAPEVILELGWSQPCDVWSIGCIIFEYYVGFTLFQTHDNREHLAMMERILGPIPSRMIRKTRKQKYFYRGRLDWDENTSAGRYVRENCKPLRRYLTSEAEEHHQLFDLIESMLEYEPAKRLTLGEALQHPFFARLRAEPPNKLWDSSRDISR

Experiments:
Conditions in all cases: 10 μM; cited from earlier work
[1] = target: T1, DYRK2 (Homo sapiens, UniProt Q92630)
T1 construct: purchased ProQinase (Freiburg, Germany)
T1 sequence (Q92630 1-601): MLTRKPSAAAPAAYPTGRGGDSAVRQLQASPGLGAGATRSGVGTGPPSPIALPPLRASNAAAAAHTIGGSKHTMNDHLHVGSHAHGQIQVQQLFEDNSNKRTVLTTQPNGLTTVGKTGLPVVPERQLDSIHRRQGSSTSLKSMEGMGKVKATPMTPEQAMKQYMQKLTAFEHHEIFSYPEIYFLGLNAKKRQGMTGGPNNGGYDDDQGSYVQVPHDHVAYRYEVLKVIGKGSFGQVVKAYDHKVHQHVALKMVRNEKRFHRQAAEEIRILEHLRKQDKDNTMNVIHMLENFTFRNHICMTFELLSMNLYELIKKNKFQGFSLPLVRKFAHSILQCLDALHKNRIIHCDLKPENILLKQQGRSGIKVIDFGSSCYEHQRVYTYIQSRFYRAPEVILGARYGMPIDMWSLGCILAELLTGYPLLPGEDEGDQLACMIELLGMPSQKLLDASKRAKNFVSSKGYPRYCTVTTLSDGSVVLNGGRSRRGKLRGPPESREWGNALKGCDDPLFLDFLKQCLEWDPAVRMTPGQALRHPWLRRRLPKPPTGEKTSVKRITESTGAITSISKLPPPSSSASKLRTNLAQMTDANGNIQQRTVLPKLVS

[2] = target: T2, CLK3 (Homo sapiens, UniProt P49761)
T2 construct: purchased ProQinase (Freiburg, Germany)

[3] = target: DYRK1B (Homo sapiens, UniProt Q9Y463); design: purchased ProQinase (Freiburg, Germany)
[4] = target: T3, CLK2 (Homo sapiens, UniProt P49760)
T3 construct: purchased ProQinase (Freiburg, Germany)

CN1C(=O)/C(=C/c2ccc3c(c2)OCO3)N=C1N [Leucett-amine B, Leucettamine B]
Residual activity (% of control) [1]: 57 % of control
Residual activity (% of control) [2]: 73 % of control
Residual activity (% of control) [3]: 11 % of control
Residual activity (% of control) [4]: 10 % of control
